ChEMBL document CHEMBL1146801, “Oxyguanidines. Part 2: Discovery of a novel orally active thrombin inhibitor through structure-based drug design and parallel synthesis” (Bioorg Med Chem Lett, 2004)

Molecular target: Prothrombin (Homo sapiens, UniProt P00734)
Assay: Inhibitory activity against thrombin

Ki: 7.62 µM
Structure (SMILES): N=C(N)NOCCCOc1cc(Cl)cc(C(=O)N2CCOCC2)c1
